Assay results published in patent publication US20060088887A1.
One block for each compound: values may come before it.

Sequences of proteins named here, by UniProt entry; tags and fusion partners are left off. Residues count along the entry.
UniProt P62942, 2-108 limits assumed: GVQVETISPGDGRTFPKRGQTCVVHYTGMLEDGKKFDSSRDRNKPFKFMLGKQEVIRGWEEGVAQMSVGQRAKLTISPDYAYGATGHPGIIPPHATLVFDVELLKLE

Key:
[1] = molecular target: T1, FK506-binding protein (FKBP) (Homo sapiens, UniProt P62942); assay: Fluorescent correlation analysis (FCS) binding of fluorescence-labeled compounds to FKBP
From the text: As a target protein, FKBP was used, and a concentration thereof was adjusted to 10 nmol/L in a physiological buffer. A library of a plurality of compounds (also referred to as first compound library) was labeled with a fluorescent substance, 5-TAMRA (5-Carboxytetramethylrhodamine), and was adjusted to three concentrations (1, 10, and 100 nmol/L) (hereinafter, such fluorescence-labeled compound is referred to as first fluorescence-labeled compound). The target protein FKBP and the first fluorescence-labeled compound having any of three concentrations (1, 10, and 100 nmol/L) were mixed at the same amount of 50 μL. The mixture was incubated at room temperature for 15 to 30 minutes, placed in a 96-well glass bottom microplate, and measured with a fluorescent correlation analysis apparatus.
As laser, helium-neon laser 543 nm was used. Measurement was performed consecutively five times at a measuring time of 10 seconds per sample, and an average was adopted as data. As a measuring parameter, a translational diffusion time and a molecular concentration were calculated, and affinity of each compound was studied by a Kd value (dissociation constant).
(i) a first fluorescence-labeled compound alone, and (ii) a target protein (FKBP) which had interacted with the compound were discriminated by a translational diffusion time, and thereby discriminated as two kinds of molecular species. […]

[2] = molecular target: T1, FK506-binding protein (FKBP); assay: Fluorescent correlation analysis (FCS) binding of second (Cy5-labeled) compounds to FKBP which had interacted with Compound 2; settings: for Kd: read-out: Kd value (dissociation constant)
Method: Then, a mixture solution of a Compound 2 and a target protein FKBP was prepared. In the mixture solution, the Compound 2 interacts with FKBP and, thereby, a Compound 2 which is bound to FKBP and a Compound 2 which is in a free state are present in admixture with each other in the equilibrium state. Using such the mixture solution, a compound which binds to FKBP which had interacted with Compound 2, in a vicinity of the Compound 2, was further screened among a group of a few kinds of compounds (also referred to as second compound library).
The second compound library was labeled with Cy5 (Amersham) as a fluorescent substance (hereinafter, such a fluorescence-labeled compound is referred to as second fluorescence-labeled compound). In a fluorescent correlation analysis apparatus, helium-neon laser 633 nm was irradiated for measurement. The second fluorescence-labeled compound uses a different excitation wavelength from that of the aforementioned first fluorescence-labeled compound, upon detection. For this reason, when a wavelength exciting only a second fluorescence-labeled compound is irradiated, only a sample with which two kinds of fluorescence-labeled compounds interacted can be screened.
A translational diffusion time measured by a fluorescent correlation analysis apparatus is about 60μ seconds in (i) the second fluorescence-labeled compound, and about 240μ seconds in (ii) a target protein (FKBP) with which both of the first fluorescence-labeled compound and the second fluorescence-labeled compound interacted.
Thereby, using about 240μ seconds of a translational diffusion time of the complex obtained by interaction with two kinds of compounds, a concentration of each molecular species (i.e., a concentration of a fluorescence-labeled compound in a free state and a concentration of the complex obtained by interaction) was calculated. As a result, a Kd value (dissociation constant) which is to be an index of affinity was obtained.

Kd ([1]; read-out: Kd value (dissociation constant), 5-TAMRA-labeled compound, FKBP 10 nmol/L, room temperature 15 to 30 minutes, laser 543 nm): 2 µM
SMILES: COC(=O)C1CCCCN1C(=O)C(=O)c1cc(OC)c(OC)c(OC)c1 (centres unmarked)

SMILES: O=C(Nc1ccccc1O)c1ccc(O)cc1
Kd ([2]; Cy5-labeled compound, in mixture solution of Compound 2 and FKBP, laser 633 nm): 800 µM

affinity for FKBP among compounds 10 to 14 ([1]; comparison among five linked compounds): highest affinity for FKBP
SMILES: COc1cc(C(=O)C(=O)N2CCCCC2C(=O)OCCCOc2ccc(C(=O)Nc3ccc(O)cc3)cc2)cc(OC)c1OC (centres unmarked)

stability of binding to target protein among Compounds 3 to 9 ([2]; comparison of Kd values of Compounds 3 to 9): most stably binds to a target protein
Kd ([2]; side-chain-altered analogue of Compound 3, second binding site): 100 µM
SMILES: O=C(Nc1ccc(O)cc1)c1ccc(O)cc1
